Results published in PubChem BioAssay AID651725 (National Center for Advancing Translational Sciences (NCATS), 2012).
The list shows a part of the results, in another mix than the full data. Some results for these compounds are left out of this collection, so the calls shown say nothing about other tests. Calls of active or inactive are those of the source. Rule as the data show it: active = activity change below about -65%; inconclusive = mostly about -30% to -63%; inactive = weaker than that.

Sequences of proteins named here, by UniProt entry; tags and fusion partners are left off.
UniProt Q15475, whole entry: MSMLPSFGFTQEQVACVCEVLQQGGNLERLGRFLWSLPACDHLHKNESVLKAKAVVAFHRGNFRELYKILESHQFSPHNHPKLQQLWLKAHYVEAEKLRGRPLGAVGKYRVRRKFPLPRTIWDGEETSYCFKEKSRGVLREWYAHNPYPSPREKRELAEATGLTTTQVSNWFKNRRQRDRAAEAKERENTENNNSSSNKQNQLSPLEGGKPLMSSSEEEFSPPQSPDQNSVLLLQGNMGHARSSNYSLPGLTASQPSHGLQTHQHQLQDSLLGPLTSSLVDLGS

molecular target: Homeobox protein SIX1 (Homo sapiens) + Protein phosphatase EYA2 (Homo sapiens) (UniProt Q15475+O00167); test: qHTS Assay for Inhibitors of the Six1/Eya2 Interaction; settings: AlphaScreen GST-Six1/His-Eya2 binding, biochemical; active compounds read low
Description: Its expression is low or undetectable in normal adult breast tissue but the gene is over-expressed in 50% of primary breast tumors and 90% of metastatic lesions. […] Similar to Six1, Eya2 is also not expressed in most normal adult tissues, but is reexpressed in cancers. The Six1-Eya interaction is essential for proliferation during embryonic development, and both Six1 and Eya2 have been independently implicated in the same types of cancer. Because Six1 and Eya2 are embryonic genes with little expression in adult tissues, inhibitors of their expression/activity are likely to have limited side effects. Our goal is to identify inhibitors of the Six1/Eya interaction for potential cancer therapy. To this end, we have developed a homogenous AlphaScreen assay targeting the Six1/Eya interaction. We performed a large scale HTS of the Molecular Libraries Small Molecule Repository (MLSMR) to identify inhibitors of the Six1/Eya interaction as potential anti-cancer therapeutics. Compounds identified can also be used as chemical probes to better understand the biological functions of Six1 and Eya. NIH Chemical Genomics Center [NCGC] NIH Molecular Libraries Probe Centers Network [MLPCN] MLPCN Grant: DA033147 Assay Submitter (PI): Rui Zhao, University of Colorado Denver
The first step of the 5 uL AlphaScreen assay is to dispense assay buffer (50 mM Tris, pH 8.0, 300 mM NaCl, 0.05% BSA, 0.02% Tween 20, 1 mM TCEP) into a Greiner 1536 white solid bottom microtiter plate (789175-F). Five microliters is added to Column 1, 4 uL is added to Column 2 and 3 uL is added to Columns 3 through 48. A 5X protein solution (250 nM GST-Six1 protein + 500 nM His-tagged Eya2 protein) is mixed and 1 uL is dispensed to Columns 3-48. Using a 1536 pintool, 23 nL of compound is transferred to the assay plate. A solution of 5X AlphaScreen beads is mixed (50 ug/mL Glutathione linked donor beads + Nickel chelated acceptor beads) and 1 uL is dispensed to Columns 2-48. The assay plate is incubated for one hour, with a lid, at 37 deg C in the dark. The plate is read using a Perkin Elmer Envision using an AlphaScreen protocol.
% is scaled to controls: 0 for no effect and ±100 for the full control effect.

| Structure (SMILES) | activity change |
| --- | --- |
| COc1ccc(Br)c(C(=O)NCC2(N3CCCCC3)CCCCC2)c1 | inactive: -0.876% |
| C=C(C)C#CC(O)(C(=O)OC1CCN(C)CC1)c1ccccc1 (stereo unspecified) | inactive: 12.7% |
| CN(C)c1cccc(C(=O)NCC2(N(C)C)CCCCC2)c1 | inactive: -15.4% |
| O=C(OCCN1CCCC1)C(O)(c1ccccc1)c1ccccc1 | inactive: -5.46% |
| CC(C)Oc1ccc(C(=O)NCC2(N(C)C)CCCCC2)cc1 | inactive: 5.63% |
| O=C(OC1CN2CCC1CC2)C(CO)(c1ccccc1)c1ccccc1 (stereo unspecified) | inactive: 10.8% |
| COc1ccc(Cl)cc1C(=O)NCC1(N(C)C)CCCCC1 | inactive: -4.35% |
| COc1cccc(C(=O)NCC2(N3CCCCC3)CCCCC2)c1 | inactive: 8.45% |
| O=C(NCC1(N2CCCCC2)CCCCC1)c1cccc(Cl)c1 | inactive: -8.54% |
| CN(C)C1(CNC(=O)c2ccc(Br)cc2)CCCCC1 | inactive: -3.23% |
| COc1cc(C(=O)NCC2(N(C)C)CCCCC2)c([N+](=O)[O-])cc1OC | inactive: 7.6% |
| O=C(NCC1(N2CCCCC2)CCCCC1)c1cc(F)c(F)cc1Cl | inactive: -1.07% |
| C=CCN1CCN(CCOC(=O)C(O)(c2ccccc2)c2ccccc2)CC1 | inactive: 5.33% |
| O=C(NCC1(N2CCCCC2)CCCCC1)c1cccc(Br)c1 | inactive: -0.621% |
| Cc1cc(C(=O)NCC2(N3CCCCC3)CCCCC2)ccc1[N+](=O)[O-] | inactive: 12.7% |
| CCN1CCCC(OC(=O)C2(O)c3ccccc3C=Cc3ccccc32)C1 (stereo unspecified) | inactive: 4.15% |
| COc1ccc(C(=O)NCC2(N(C)C)CCCCC2)cc1 | inactive: 4.08% |
| CN(C)C1CCCC1OC(=O)C(O)(c1ccccc1)c1ccccc1 (stereo unspecified) | inactive: 0% |
| CN(C)c1ccc(C(=O)NCC2(N(C)C)CCCCC2)cc1 | inactive: 6.15% |
| Cc1ccccc1C(=O)NCC1(N2CCCCC2)CCCCC1 | inactive: 2.36% |
| CC(C)N1C(=O)CC2(CCN(CCOC(=O)C(O)(c3ccccc3)c3ccccc3)CC2)C1=O | inactive: -1.7% |
| COc1cc(SC)ccc1C(=O)NCC1(N(C)C)CCCCC1 | inactive: 15.5% |
| CCN(CC)CC(C)C(C)OC(=O)C(O)(c1ccccc1)c1ccccc1 (stereo unspecified) | inactive: 0.954% |
| Cc1ccc(C(=O)NCC2(N3CCCCC3)CCCCC2)cc1 | inactive: -0.764% |
| O=C(NCC1(N2CCCCC2)CCCCC1)c1cc([N+](=O)[O-])ccc1Cl | inactive: -1.52% |
| CN1[C@@H]2CC[C@H]1CC(OC(=O)C(O)(c1ccccc1)c1ccccc1)C2 (stereo partly specified) | inactive: 2.43% |
